Reference: PubChem BioAssay (NCI)
Some tests of the compounds listed are not included; inactive here does not mean inactive elsewhere.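 Growth conditions: 96-well plates. Treatment: test compound, 48 hours, 5 concentrations. Analysis: linear interpolation between bracketing concentrations; unreached endpoints set to highest concentration. At the GI50, growth is halved. TGI denotes the concentration required for complete inhibition of growth.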

Legend:
Assay in all cases: inhibition of tumour cell growth, NCI panel, 48 h
786-0 renal = system: 786-0 renal
A549 NSCLC = system: A549 NSCLC
ACHN renal = system: ACHN renal
BT-549 breast = system: BT-549 breast
CAKI-1 renal = system: CAKI-1 renal
CCRF-CEM leukemia = system: CCRF-CEM leukemia
COLO 205 colon = system: COLO 205 colon
DU-145 prostate = system: DU-145 prostate
EKVX NSCLC = system: EKVX NSCLC
HCC-2998 colon = system: HCC-2998 colon
HCT-116 colon = system: HCT-116 colon
HCT-15 colon = system: HCT-15 colon
HL-60(TB) leukemia = system: HL-60(TB) leukemia
HOP-62 NSCLC = system: HOP-62 NSCLC
HS 578T breast = system: HS 578T breast
HT29 colon = system: HT29 colon
IGROV1 ovarian = system: IGROV1 ovarian
K-562 leukemia = system: K-562 leukemia
KM12 colon = system: KM12 colon
LOX IMVI melanoma = system: LOX IMVI melanoma
M14 melanoma = system: M14 melanoma
MALME-3M melanoma = system: MALME-3M melanoma
MDA-MB-231 breast = system: MDA-MB-231 breast
MDA-MB-435 = system: MDA-MB-435
MDA-N = system: MDA-N
MOLT-4 leukemia = system: MOLT-4 leukemia
NCI-H226 lung = system: NCI-H226 lung
NCI-H23 lung = system: NCI-H23 lung
NCI-H460 lung = system: NCI-H460 lung
NCI/ADR-RES ovarian = system: NCI/ADR-RES ovarian
OVCAR-3 ovarian = system: OVCAR-3 ovarian
OVCAR-4 ovarian = system: OVCAR-4 ovarian
OVCAR-5 ovarian = system: OVCAR-5 ovarian
OVCAR-8 ovarian = system: OVCAR-8 ovarian
PC-3 prostate = system: PC-3 prostate
RPMI-8226 leukemia = system: RPMI-8226 leukemia
RXF 393 renal = system: RXF 393 renal
SF-268 CNS = system: SF-268 CNS
SF-295 CNS = system: SF-295 CNS
SF-539 CNS = system: SF-539 CNS
SK-MEL-2 melanoma = system: SK-MEL-2 melanoma
SK-MEL-28 melanoma = system: SK-MEL-28 melanoma
SK-MEL-5 melanoma = system: SK-MEL-5 melanoma
SK-OV-3 ovarian = system: SK-OV-3 ovarian
SN12C renal = system: SN12C renal
SNB-19 CNS = system: SNB-19 CNS
SNB-75 CNS = system: SNB-75 CNS
SR leukemia = system: SR leukemia
SW-620 colon = system: SW-620 colon
T-47D breast = system: T-47D breast
TK-10 renal = system: TK-10 renal
U251 CNS = system: U251 CNS
UACC-257 melanoma = system: UACC-257 melanoma
UACC-62 melanoma = system: UACC-62 melanoma
UO-31 renal = system: UO-31 renal

Compound CCCC#CC(O)(C(=O)OC1CN2CCC1CC2)C1CCCCC1 (stereo not given) has a GI50 (786-0 renal) greater than 100 µM, a TGI (786-0 renal) greater than 100 µM and a GI50 (A549 NSCLC) greater than 100 µM. The TGI (A549 NSCLC) was greater than 100 µM, the GI50 (ACHN renal) was greater than 100 µM and the TGI (ACHN renal) was greater than 100 µM. For the same compound, the GI50 (BT-549 breast) was greater than 100 µM, the TGI (BT-549 breast) was greater than 100 µM and the GI50 (CAKI-1 renal) was 25.8 µM. The TGI (CAKI-1 renal) was 82.2 µM, the GI50 (CCRF-CEM leukemia) was greater than 100 µM and the TGI (CCRF-CEM leukemia) was greater than 100 µM. For the same compound, the GI50 (COLO 205 colon) was greater than 100 µM, the TGI (COLO 205 colon) was greater than 100 µM and the GI50 (DU-145 prostate) was greater than 100 µM. The TGI (DU-145 prostate) was greater than 100 µM, the GI50 (EKVX NSCLC) was greater than 100 µM and the TGI (EKVX NSCLC) was greater than 100 µM. The GI50 (HCC-2998 colon) was greater than 100 µM, the TGI (HCC-2998 colon) was greater than 100 µM and the GI50 (HCT-116 colon) was greater than 100 µM. It also gave a TGI (HCT-116 colon) greater than 100 µM, a GI50 (HCT-15 colon) greater than 100 µM and a TGI (HCT-15 colon) greater than 100 µM. It also gave a GI50 (HL-60(TB) leukemia) greater than 100 µM, a TGI (HL-60(TB) leukemia) greater than 100 µM and a GI50 (HOP-62 NSCLC) greater than 100 µM. The TGI (HOP-62 NSCLC) was greater than 100 µM, the GI50 (HS 578T breast) was greater than 100 µM and the TGI (HS 578T breast) was greater than 100 µM. The GI50 (HT29 colon) was 40.3 µM, the TGI (HT29 colon) was greater than 100 µM and the GI50 (IGROV1 ovarian) was greater than 100 µM. For the same compound, the TGI (IGROV1 ovarian) was greater than 100 µM, the GI50 (K-562 leukemia) was greater than 100 µM and the TGI (K-562 leukemia) was greater than 100 µM. The GI50 (KM12 colon) was greater than 100 µM, the TGI (KM12 colon) was greater than 100 µM and the GI50 (LOX IMVI melanoma) was greater than 100 µM. For the same compound, the TGI (LOX IMVI melanoma) was greater than 100 µM, the GI50 (M14 melanoma) was greater than 100 µM and the TGI (M14 melanoma) was greater than 100 µM. The GI50 (MALME-3M melanoma) was greater than 100 µM, the TGI (MALME-3M melanoma) was greater than 100 µM and the GI50 (MDA-MB-231 breast) was greater than 100 µM. For the same compound, the TGI (MDA-MB-231 breast) was greater than 100 µM, the GI50 (MDA-MB-435) was greater than 100 µM and the TGI (MDA-MB-435) was greater than 100 µM. For the same compound, the GI50 (MDA-N) was greater than 100 µM, the TGI (MDA-N) was greater than 100 µM and the GI50 (MOLT-4 leukemia) was 53.8 µM. It also gave a TGI (MOLT-4 leukemia) greater than 100 µM, a GI50 (NCI-H226 lung) greater than 100 µM and a TGI (NCI-H226 lung) greater than 100 µM. For the same compound, the GI50 (NCI-H23 lung) was greater than 100 µM, the TGI (NCI-H23 lung) was greater than 100 µM and the GI50 (NCI-H460 lung) was greater than 100 µM. It also gave a TGI (NCI-H460 lung) greater than 100 µM, a GI50 (NCI/ADR-RES ovarian) greater than 100 µM and a TGI (NCI/ADR-RES ovarian) greater than 100 µM. For the same compound, the GI50 (OVCAR-3 ovarian) was greater than 100 µM, the TGI (OVCAR-3 ovarian) was greater than 100 µM and the GI50 (OVCAR-4 ovarian) was greater than 100 µM. The TGI (OVCAR-4 ovarian) was greater than 100 µM, the GI50 (OVCAR-5 ovarian) was greater than 100 µM and the TGI (OVCAR-5 ovarian) was greater than 100 µM. It also gave a GI50 (OVCAR-8 ovarian) greater than 100 µM, a TGI (OVCAR-8 ovarian) greater than 100 µM and a GI50 (PC-3 prostate) greater than 100 µM. It also gave a TGI (PC-3 prostate) greater than 100 µM, a GI50 (RPMI-8226 leukemia) greater than 100 µM and a TGI (RPMI-8226 leukemia) greater than 100 µM. It also gave a GI50 (RXF 393 renal) of 39.5 µM, a TGI (RXF 393 renal) greater than 100 µM and a GI50 (SF-268 CNS) of 86.5 µM. The TGI (SF-268 CNS) was greater than 100 µM, the GI50 (SF-295 CNS) was greater than 100 µM and the TGI (SF-295 CNS) was greater than 100 µM. The GI50 (SF-539 CNS) was greater than 100 µM, the TGI (SF-539 CNS) was greater than 100 µM and the GI50 (SK-MEL-2 melanoma) was greater than 100 µM. It also gave a TGI (SK-MEL-2 melanoma) greater than 100 µM, a GI50 (SK-MEL-28 melanoma) greater than 100 µM and a TGI (SK-MEL-28 melanoma) greater than 100 µM. The GI50 (SK-MEL-5 melanoma) was greater than 100 µM, the TGI (SK-MEL-5 melanoma) was greater than 100 µM and the GI50 (SK-OV-3 ovarian) was greater than 100 µM. The TGI (SK-OV-3 ovarian) was greater than 100 µM, the GI50 (SN12C renal) was greater than 100 µM and the TGI (SN12C renal) was greater than 100 µM. The GI50 (SNB-19 CNS) was greater than 100 µM, the TGI (SNB-19 CNS) was greater than 100 µM and the GI50 (SNB-75 CNS) was 31.4 µM. For the same compound, the TGI (SNB-75 CNS) was greater than 100 µM, the GI50 (SR leukemia) was greater than 100 µM and the TGI (SR leukemia) was greater than 100 µM. It also gave a GI50 (SW-620 colon) greater than 100 µM, a TGI (SW-620 colon) greater than 100 µM and a GI50 (T-47D breast) greater than 100 µM. It also gave a TGI (T-47D breast) greater than 100 µM, a GI50 (TK-10 renal) greater than 100 µM and a TGI (TK-10 renal) greater than 100 µM. For the same compound, the GI50 (U251 CNS) was greater than 100 µM, the TGI (U251 CNS) was greater than 100 µM and the GI50 (UACC-257 melanoma) was greater than 100 µM. For the same compound, the TGI (UACC-257 melanoma) was greater than 100 µM, the GI50 (UACC-62 melanoma) was 95.4 µM and the TGI (UACC-62 melanoma) was greater than 100 µM. The GI50 (UO-31 renal) was 97.9 µM and the TGI (UO-31 renal) was greater than 100 µM.
